Reference: patent US9115093B2, “Substituted bicyclic dihydropyrimidinones and their use as inhibitors of neutrophil elastase activity” (Boehringer Ingelheim International GmbH, priority 2013, dated 2015)

Protein sequences, listed by entry. Tags and fused reporters are not part of them. Residues count along the entry.
UniProt P08246, 30-247 limits assumed: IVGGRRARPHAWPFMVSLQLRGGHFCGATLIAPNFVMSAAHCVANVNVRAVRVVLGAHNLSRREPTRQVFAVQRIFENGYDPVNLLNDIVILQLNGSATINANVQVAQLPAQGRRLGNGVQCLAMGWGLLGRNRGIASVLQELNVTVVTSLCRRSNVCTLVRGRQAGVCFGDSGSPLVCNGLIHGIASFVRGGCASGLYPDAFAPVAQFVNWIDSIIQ

Biological target: Human neutrophil elastase (Homo sapiens, UniProt P08246)
Assay: Human Neutrophil Elastase Assay
Type: biochemical
Details: substrate MeOSuc-Ala-Ala-Pro-Val-AMC, pH 7.5, room temperature

SMILES	IC50
COC1CCN(C(=O)CN2C(=O)N(c3cccc(C(F)(F)F)c3)C3=C(C(=O)CCC3)C2c2ccc(C#N)cc2S(C)(=O)=O)CC1 (stereo not drawn)	1.6 nM
COCCCN1C(=O)N(c2cccc(C(F)(F)F)c2)C2=C(C(=O)CCC2)C1c1ccc(C#N)cc1S(C)(=O)=O (stereo not drawn)	1.3 nM
CS(=O)(=O)c1cc(C#N)ccc1[C@@H]1C2=C(CCCC2=O)N(c2cccc(C(F)(F)F)c2)C(=O)N1C(=O)NC12CC(C1)C2	< 1 nM
